This is an account of results in ChEMBL document CHEMBL5137114, “Discovery of IHMT-MST1-58 as a Novel, Potent, and Selective MST1 Inhibitor for the Treatment of Type 1/2 Diabetes” (J Med Chem, 2022).

For test [1], the system named is Mus musculus. As to the kind of experiment: Antidiabetic activity against 12 hrs fasted high fat diet-STZ-induced C57BL/6J mouse model of type 2 diabetes assessed as decrease in fasting blood glucose level at 50 mg/kg, po qd administered for 106 days (reference value: 16.8 mmol/L). The conditions noted are these: time 106 day. The format is functional.
In test [2] the test system is Mus musculus. As to the kind of experiment: Antidiabetic activity against 12 hrs fasted high fat diet-STZ-induced C57BL/6J mouse model of type 2 diabetes assessed as decrease in fasting blood glucose level at 50 mg/kg, po qd administered for 106 days in presence of metformin (reference value: 16.8 mmol/L). In kind it is functional. The conditions noted are these: time 106 day.

Molecules are shown by their SMILES.

For the molecule `Cc1ccccc1C1C(=O)N(C)c2cnc(Nc3ccc(S(N)(=O)=O)cc3)nc2N1C` (configuration not stated), the Activity with Mus musculus [1] was 13.3 mmol/L; in the test with Mus musculus [2], 7.4 mmol/L.
